Experimental data: patent US20130261173A1, “CYCLODEXTRIN-BASED POLYMERS FOR THERAPEUTIC DELIVERY” (CERULEAN PHARMA INC., priority 2009, published 2013)

What was measured:
[1] = Tolerability in the murine melanoma model (body weight)
[2] = format: physicochemical; conditions: dissolved in water, DLS
Procedure: CDP-hexanoate-docetaxel (100 mg) as prepared in example 3 above was dissolved in water (10 mL). Particle solution properties were characterized by dynamic light scattering (DLS) spectrometer.
CDP-NHEtSSEtOCO-2′-O-docetaxel (100 mg) as prepared in example 12 above was dissolved in water (10 mL). Particle solution properties were characterized by dynamic light scattering (DLS) spectrometer.
CDP-NHEtSSEtOCO-2′-O-docetaxel as prepared in Example 15 above (1 mg) was dissolved in water (1 mL). Particle solution properties were characterized by dynamic light scattering (DLS) spectrometer.
After decanting the acetone, the polymer was dissolved in 10 ml of water to make ˜10 mg/mL polymer solution. The solution was then dialyzed against 4 L water using 25 kDa MWCO dialysis tube. […] The filtered solution was then analyzed for size by dynamic light scattering (DLS) spectrometer.
The reaction was worked up by precipitating the polymer in 15 volumes of acetone (150 mL). […] The final solution (volume ˜52 mL) was filtered through a 0.22 μm filter and the filtered solution was analyzed for particle size.
The reaction was worked up by precipitating the polymer in 15 volumes of acetone (45 mL), which occurred immediately in the form of a lump. […] The resulting solution (˜16.5 mL), was filtered through a 0.22 μm filter and the filtered solution was analyzed for particle size. […]

[3] = Procedure: The drug release and stability method experiment was run using the following
A 10 mg/mL (with regard to polymer) solution of each CDP-linker-DTX nanoparticle was prepared in water (pH<5) or in 0.1×PBS buffer (pH=7.4). An aliquot of 100 μL was transferred into corresponding HPLC vials. A vial containing each CDP-linker-DTX nanoparticle in water for each designated time point was placed in both: 1) a water bath at 37° C. and 2) kept at room temperature at 25° C. Samples were mixed using a water bath shaker at 100 rpm during the experiments. At each designated time point, a vial was removed for each CDP-linker-DTX nanoparticle and processed for HPLC using a sample preparation procedure.
If there was any precipitated material in the vial, the contents were also stirred to dissolve the precipitate. If the sample was still opaque, an additional 25 μL of 0.1% formic acid in ACN was added.
The sample degradation was calculated based on the percentage of the amount of conjugated drug with regard to the initial starting point of the experiment (at t=0).

[4] = mouse, in vivo
[5] = 15 mg/kg IV, three injections over 2 weeks (twice per week)
[6] = 15 mg/kg IV, weekly schedule for 3 injections
[7] = 30 mg/kg IV, weekly schedule for 3 injections (study of 1.4, 2.3, 4.2, 5.2)
[8] = 0.1x PBS, pH = 7.4, 37° C., 24 h

| Substance | Maximum body weight loss (%) [1, 5] | Maximum body weight loss (%) [1, 6] | Maximum body weight loss (%) ([1]; 30 mg/kg IV, biweekly schedule for 2 injections) | Maximum body weight loss (%) [1, 7] | Dv50 [2] | Dv90 [2] | In vitro degradation of conjugate (24 hrs in PBS at 37° C.) [3] | Maximum body weight loss (%) ([1]; 30 mg/kg IV, biweekly schedule for 3 injections) | Maximum body weight loss (%) ([1]; 30 mg/kg IV, three injections over 2 weeks (twice per week)) | Maximum body weight loss (%) ([1]; 30 mg/kg IV, weekly schedule for 3 injections (study of 1.5)) | In vitro degradation of conjugate (24 hrs in PBS at 37° C.) [3, 8] | In vitro release of free drug (24 hrs in PBS at 37° C.) [3, 8] | Maximum body weight loss (%) [4] |
| --- | --- | --- | --- | --- | --- | --- | --- | --- | --- | --- | --- | --- | --- |
| CDP-2′-alanine glycolate-docetaxel [CDP-Ala Gly-DTX formulation] | 6% | 3% | 2% | 7% | 12.9 nm | 26.1 nm | 96% | – | – | – | – | – | – |
| CDP-2′-glycine-docetaxel [CDP-Gly-DTX formulation] | 7% | 0% | – | 14% | – | – | – | 4% | 20% | 15% | 84% | 88% | – |
| CDP-2′-hexanoate-docetaxel [CDP-Hex-DTX formulation] | – | – | – | – | – | – | – | – | – | – | – | – | 0% |

Where two headings read alike, the source gives them in different places.
